# Measurements: PubChem BioAssay AID588856 (National Center for Advancing Translational Sciences (NCATS), 2011)
# Only a part is listed here, and it is no random draw. Calls of active or inactive are those of the source. The call rests on the fitted dose curve; in most records, active means well fitted cell-killing curve with a large enough effect; inactive means no such curve, though single readings can be large or run the other way. Where a call stands in place of a potency, no number is given.
# Assay: qHTS for Inhibitors of TGF-b: Cytotox Counterscreen
# Conditions: HepG2 CAGA-GFP viability, ATP luminescence, 18 h; series mostly up to 46.1 µM
# Description: TGF-b is a main component in the TGF-b signaling pathway which plays diverse roles in cellular and development pathways. TGF-b is mediated by transcription factors called "Smads". Although the Smad-dependent pathway is the primary canonical TGF-b signaling mode, TGF-b1 can also activate alternative signaling pathways, including those involving MAPK (ERK, JNK and p38). This interaction may mediate or enhance Smad-dependent responses, or can exert Smad-independent effects. The complexity of this signaling cascade allows the TGF-b superfamily to perform unique, overlapping or redundant functions. We believe that targeting the TGF-beta pathway at the Smad-transcription factor level may eliminate the consequences of disrupting the entire pathway and offer specificity without affecting other signaling pathways. Smad3 is the primary transducer of TGF-b's signals and Smad3 regulates many functions attributed to TGF-b signaling. We hypothesize that Smad3 inhibitors will selectively eliminate Smad3-specific TGF-beta signals without undesired off-target effects. We aim to identify Smad3-small molecule antagonists using a quantitative high throughput screening (qHTS) approach.
# A high-throughput assay was developed to screen the NIH Molecular Libraries Small Molecule Repository (MLSMR). This is a cell based assay, where TGF-b is tagged with GFP. This is a counterscreen that evaluates the cytotoxicity of the compounds that were screened in the primary cell-based screen (AID 588855).
# MH087449NIH Chemical Genomics Center [NCGC]
# NIH Molecular Libraries Probe Centers Network [MLPCN]
# Assay Submitter (PI): Sushil Rane, National Institute of […]
# Suspensions of trypsinized HEPG2 CAGA-GFP cells were dispensed into white, tissue culture-treated, solid 1536-well plates at 5uL/well (1000 cells/well final concentration) in DMEM medium supplemented with 1% FBS. Plates were incubated at 37 degrees C for 2 hours, after which 23 nL of compounds or DMSO were delivered to each well using a pin tool. One uL of recombinant TGF-beta in DMEM (1% FBS) was then dispensed (500 pg/mL final concentration), and plates were incubated at 37 degrees C for 18 hours. Two uL of CellTiter Glo (Promega), a luminescence-based viability reagent, was dispensed, followed by a 10 minute room temperature incubation. The plates were then measured on a PerkinElmer ViewLux plate reader for luminescence (clear filter) using a 5 second exposure. The %Activity was determined from the corrected luminescence values. Wells containing media only (no cells) were used to normalize %Activity of identified toxic compounds; media-only wells corresponded to 100%Activity (complete cell-killing), while DMSO-dosed cell controls were used to normalize 0%Activity (no toxicity).
# Concentration-response curves were fitted to the signals arising from the resulting luminescence. The concentration-effect curves were then classified based on curve quality (r2), response magnitude and degree of measured activity, and compounds were subsequently categorized based on their curve class.
# Potency means the concentration at half of the fitted maximal effect.
row,Compound,Potency
1,CP(=O)(OCCOc1ccccc1)OCCOc1ccccc1,inactive
2,CP(=O)(Nc1ccc(Cl)cc1Cl)Oc1ccccc1 (centres undefined),inactive
3,CCCCCCCCCCCCCCCC1C[N+](C)(C)CCOP(C)(=O)O1 (centres undefined),inactive
4,Cc1cc(C)cc(OP(C)(=O)Nc2cccc(C(F)(F)F)c2)c1 (centres undefined),inactive
5,COc1ccc(OP(C)(=O)Nc2ccccc2Br)cc1 (centres undefined),inactive
6,COc1ccccc1OP(C)(=O)Nc1ccc(C)c(C)c1 (centres undefined),inactive
7,O=[N+]([O-])c1cc([N+](=O)[O-])c(Nc2ccccn2)c([N+](=O)[O-])c1,active: 10 µM
8,Cc1c(NP(C)(=O)Oc2ccc(C(C)C)cc2)c(=O)n(-c2ccccc2)n1C (centres undefined),inactive
9,CCc1ccc(OP(C)(=O)O)cc1,inactive
10,CP(=O)(Nc1ccccn1)Oc1ccccc1 (centres undefined),inactive
11,COc1ccccc1OP(C)(=O)Nc1ccc(C)cc1C (centres undefined),inactive
12,COc1ccccc1OP(C)(=O)Nc1ccc(Br)cc1 (centres undefined),inactive
13,CN(C)CCOC(=O)C(O)(c1ccccc1)C1CCCC1 (centres undefined),inactive
14,COc1ccc(OP(C)(=O)Nc2ccccn2)cc1 (centres undefined),inactive
15,CP(=O)(Nc1ccc(Cl)cc1)Oc1ccc(F)cc1 (centres undefined),inactive
16,CC(C)(C)c1ccc(OP(C)(=O)O)cc1,inactive
17,COc1ccccc1OP(C)(=O)Nc1ccccc1Br (centres undefined),inactive
18,CN(C)C(=O)c1c([N+](=O)[O-])cc([N+](=O)[O-])cc1[N+](=O)[O-],active: 11.2 µM
19,CCN(CC)CC(O)COC(=O)C(O)(c1ccccc1)C1CCCCC1 (centres undefined),inactive
20,COc1ccc(OP(C)(=O)Nc2ccc(Br)cc2)cc1 (centres undefined),inactive
21,CP(=O)(Oc1ccccc1)N1CCOC1=O (centres undefined),inactive
22,CCc1ccc(OP(C)(=O)Nc2cccnc2)cc1 (centres undefined),inactive

row,Compound,Potency
1,COc1ccccc1OP(C)(=O)Nc1c(C)n(C)n(-c2ccccc2)c1=O (centres undefined),inactive
2,O=C(OCCCN1CCCC1)C(O)(c1ccccc1)C1CCCCC1 (centres undefined),inactive
3,Nc1ccc2c(ccc3cccnc32)n1.O=[N+]([O-])c1cc([N+](=O)[O-])c(O)c([N+](=O)[O-])c1,inactive
4,CP(=O)(OC12CC3CC(CC(C3)C1)C2)OC12CC3CC(CC(C3)C1)C2,inactive
5,CCOC(=O)c1ccc(NP(C)(=O)Oc2ccc(Cl)cc2)cc1 (centres undefined),inactive
6,Cc1cc(-c2cccc3ccccc23)c(C)cn1.O=[N+]([O-])c1cc([N+](=O)[O-])c(O)c([N+](=O)[O-])c1,inactive
7,O=[N+]([O-])c1ccc(OP2(=O)COCCO2)cc1 (centres undefined),inactive
8,Cc1c(C(c2ccc3c(c2)OCO3)c2c(C)n(C)n(-c3ccccc3)c2=O)c(=O)n(-c2ccccc2)n1C.O=[N+]([O-])c1cc([N+](=O)[O-])c(O)c([N+](=O)[O-])c1,inactive
9,COc1ccc(OP(C)(=O)Nc2cccc(Br)c2)cc1 (centres undefined),inactive
10,COc1ccc(NP(C)(=O)Oc2ccccc2OC)cc1 (centres undefined),inactive
11,CN(C)CCOC(=O)C(O)(c1ccccc1)C1CCCCC1 (centres undefined),inactive
12,CP(=O)(Nc1ccc2c(c1)OCCO2)Oc1ccccc1 (centres undefined),inactive
13,Cc1ccccc1NP(C)(=O)Nc1ccccc1C,inactive
14,CP(=O)(Nc1ccc(SC(F)(F)F)cc1)Oc1ccc(F)cc1 (centres undefined),inactive
15,CCOP(C)(=S)SCC(=O)NC(C)(CC)C(=O)O (centres undefined),inactive
16,O=C(OCCN1CCN(CCOCc2ccccc2)CC1)C(O)(c1ccccc1)c1ccccc1,inactive
17,CC(C)c1ccc(OP(C)(=O)Nc2ccc(SC(F)(F)F)cc2)cc1 (centres undefined),inactive
18,CP(=O)(Nc1ccccc1F)Oc1ccccc1 (centres undefined),inactive
19,CCN(CC)CCCOC(=O)C(O)(c1ccccc1)C1CCCCC1 (centres undefined),inactive
20,Cc1c([N+](=O)[O-])cc([N+](=O)[O-])c(Br)c1[N+](=O)[O-],inactive
21,CCCCCOc1ccc(NP(C)(=O)Oc2ccc(Cl)cc2Cl)cc1 (centres undefined),active: 20 µM
22,CP(=O)(Nc1ccccc1)Oc1ccc(F)cc1 (centres undefined),inactive

row,Compound,Potency
1,COc1ccc(OP(C)(=O)Nc2ccc(SC(F)(F)F)cc2)cc1 (centres undefined),inactive
2,CCOC(=O)c1ccc(NP(C)(=O)Oc2ccc(F)cc2)cc1 (centres undefined),inactive
3,CC1=NCCc2c1[nH]c1ccccc21.O=[N+]([O-])c1cc([N+](=O)[O-])c(O)c([N+](=O)[O-])c1,inactive
4,CP(=O)(Nc1cccc(Br)c1)Oc1ccccc1 (centres undefined),inactive
5,Cc1cc(C)cc(OP(C)(=O)Nc2ccccn2)c1 (centres undefined),inactive
6,Cc1ccc(C)c(NP(C)(=O)Oc2ccccc2)c1 (centres undefined),inactive
7,COc1ccccc1OP(C)(=O)Nc1cccc(Br)c1 (centres undefined),inactive
8,Cc1cc(C)cc(OP(C)(=O)Nc2ccc(C)cc2C)c1 (centres undefined),inactive
9,CCOC(=O)c1ccc(NP(C)(=O)Oc2cc(C)cc(C)c2)cc1 (centres undefined),inactive
10,O=[N+]([O-])c1cc([N+](=O)[O-])c(-c2cnn(-c3ccccc3)c2)c([N+](=O)[O-])c1,inactive
11,Cc1nc2ccc3ccccc3c2s1.O=[N+]([O-])c1cc([N+](=O)[O-])c(O)c([N+](=O)[O-])c1,inactive
12,O=[N+]([O-])c1cc([N+](=O)[O-])c(-n2nnc3ccccc32)c([N+](=O)[O-])c1,inactive
13,CN(Cc1cccnc1)C(=O)COc1ccc(Cl)c(Cl)c1.O=[N+]([O-])c1cc([N+](=O)[O-])c(O)c([N+](=O)[O-])c1,inactive
14,COc1ccccc1OP(C)(=O)Nc1c(C)cccc1C (centres undefined),inactive
15,CN1CCCCC1COC(=O)C1(O)c2ccccc2CCc2ccccc21 (centres undefined),inactive
16,CP(=O)(Nc1ccc(SC(F)(F)F)cc1)Oc1ccccc1 (centres undefined),inactive
17,CCCOc1ccc(NP(C)(=O)Oc2ccc(Cl)cc2)cc1 (centres undefined),inactive
18,O=[N+]([O-])c1cc([N+](=O)[O-])c(Nc2nnnn2CCO)c([N+](=O)[O-])c1,inactive
19,CC1=C2N=C(C=C3N=C(C(C)=C4[N-][C@@](C)([C@@H]5N=C1[C@](C)(CCC(=O)NC[C@@H](C)OP(=O)([O-])O[C@H]1[C@@H](O)[C@@H](n6cnc7cc(C)c(C)cc76)O[C@@H]1CO)[C@H]5CC(N)=O)[C@@](C)(CC(N)=O)[C@@H]4CCC(N)=O)[C@@](C)(CC(N)=O)[C@@H]3CCC(N)=O)C(C)(C)[C@@H]2CCC(N)=O.[C-]#N.[Co+3],inactive
20,CP(=S)(Nn1cnnc1)Oc1ccccc1 (centres undefined),inactive
